IC50 data for one substance are collected here from EP4541796A1, “EXATECAN DERIVATIVES AND USE THEREOF” (Hangzhou Adcoris Biopharma Co., Ltd, priority 2022, dated 2024).

Usually IC50 stands for the concentration that gives 50% inhibition. A higher IC50 goes with weaker potency in that assay.

The subject of this assay is esophageal cancer cells OE33. The assay can be described thus: In vitro inhibitory activity of ADC, CCK-8 cell growth assay. In kind it is cell-based, Human. The conditions noted are these: Inhibitory activity against OE33, 6 days incubation. Here is the method:
Human esophageal cancer cells OE33, lung cancer cells NCI-H1975 and breast cancer cells MDA-MB-231, which were used for activity testing, were cultured to the exponential growth phase in RPMI1640 (Cellmax), RPMI1640 (Cellmax) and DMEM (Cellmax) medium containing 10% fetal bovine serum (Cellmax), respectively. After trypsin digestion, the supernatant was centrifuged and discarded, and the cells were diluted with medium to 3×10^4cells/mL, 0.5×10^4cells/mL and 1.5×10^4cells/mL, respectively, and then added into 96-well cell culture plates at 100 µL per well, and returned to incubate overnight in a 37°C incubator with 5% CO2. […] After the addition, the plates were returned to the 37°C incubator with 5% CO2 to continue incubation for 6 days. After incubation, the cell culture plates were removed, and the culture medium was aspirated using a pipette. Then, 100µL of culture medium containing 10% CCK-8 was added to each well, and the plates were incubated at 37°C for 3 hours. After incubation, the plates were removed, kept in the dark, and placed in ELISA plate. Absorbance was measured at 630nm as the reference wavelength and 450nm as the test wavelength. The IC50 values (Tables 1 and 3) were calculated using the four-parameter logistic regression method in GraphPad, based on the absorbance values.
(In general: Tetrazolium dyes change colour on reduction, which living cells bring about.)

The substance “DS-8201a: antibody-drug conjugate formed with exatecan hydroxyethylamide derivative (DXd) as the toxin and trastuzumab (Herceptin); positive control drug [reference compound]” showed an IC50 of 50 to 100 nM.
